From ChEMBL document CHEMBL1122495, “Ultra-short-acting beta-adrenergic receptor blocking agents. 3. Ethylenediamine derivatives of (aryloxy)propanolamines having esters on the aryl function” (J Med Chem, 1983) come the findings set out here.

The species named for the test is Cavia porcellus. Briefly: Negative log concentration effecting 50% blockade of isoproterenol-induced rate responses in vitro in guinea pig right atria. The test is classed as functional. Particulars: read-out: pA2 (converted).

`COC(=O)c1ccccc1OCC(O)CNCCc1ccc(OC)c(OC)c1` (stereo unspecified): the Kb was 5.01 nM.
